## Water solubility values, as collected for the OPERA models

Values as listed in the OPERA 2.9 repository of K. Mansouri.

Solubility in water is on a log10 molar scale (set defined at 25 °C).

The entry for CC(C)CBr [1-Bromo-2-methylpropane] lists log S -2.43 (log10 mol/L).
The entry for CCC(=O)NC(=O)CCl [N-(Chloroacetyl)propanamide] lists log S -2.096 (log10 mol/L).
The entry for CC(C)(C)OOC(=O)/C=C\C(=O)O [(2Z)-1-(1,1-Dimethylethyl) 3-carboxy-2-propeneperoxoate] lists log S -2.64 (log10 mol/L).
The entry for COc1ccc(Cc2nccc3cc(OC)c(OC)cc23)cc1OC [Papaverine] lists log S -3.87 (log10 mol/L).
The entry for COC(=O)[C@H]1CN(C)[C@@H]2Cc3c[nH]c4cccc(c34)[C@@]2(OC)C1 lists log S -2.626 (log10 mol/L).
The entry for C[C@]12CC[C@H]3[C@@H](C=C[C@]4(O)C[C@@H](O)CC[C@]34C)[C@@H]1[C@@H]1C[C@@H]1C2=O lists log S -5.546 (log10 mol/L).
The entry for O=S(=O)([O-])C(F)(F)C(F)(F)C(F)(F)C(F)(F)F.[K+] [Potassium perfluorobutanesulfonate] lists log S -1.509 (log10 mol/L).
The entry for Nc1ccc(Cl)cc1O [Phenol, 2-amino-5-chloro-] lists log S -2.391 (log10 mol/L).
The entry for CCCCC(CC)C(=O)NC(N)=O (stereo unspecified) [1-(2-Ethylhexanoyl)urea] lists log S -2.668 (log10 mol/L).
The entry for CO[C@]12CC[C@@]3(C[C@@H]1[C@](C)(O)C(C)(C)C)[C@H]1Cc4ccc(O)c5c4[C@@]3(CCN1CC1CC1)[C@H]2O5 [Buprenorphine] lists log S -4.408 (log10 mol/L).
The entry for c1ccc2c(c1)Sc1ccccc1N2CC1CN2CCC1CC2 (stereo unspecified) [Mequitazine] lists log S -4.905 (log10 mol/L).
The entry for C#CCOc1ccc(CCNC(=O)C(OCC#C)c2ccc(Cl)cc2)cc1OC (stereo unspecified) [Mandipropamid] lists log S -4.991 (log10 mol/L).
The entry for O=C(NCO)NCO [1,3-Dimethylolurea] lists log S -3.48 (log10 mol/L).
The entry for Cc1cc(C)c(C2=C(OC(=O)CC(C)(C)C)C3(CCCC3)OC2=O)c(C)c1 [Spiromesifen] lists log S -6.45 (log10 mol/L).
The entry for COc1ccc(O)c(C(C)(C)C)c1 [2-tert-Butyl-4-methoxyphenol] lists log S -2.603 (log10 mol/L).
The entry for C[C@]12CC[C@@H]3C4=C(CC[C@H]3[C@@H]1CC[C@@H]2O)CC(=O)CC4 [17-Hydroxy-estr-5(10)-en-3-one] lists log S -4.947 (log10 mol/L).
The entry for N#CCCC(Br)(C#N)CBr (stereo unspecified) [1,2-Dibromo-2,4-dicyanobutane] lists log S -2.205 (log10 mol/L).
The entry for CC(=O)Cc1c(Cl)cc(Cl)cc1Cl [1-(2,4,6-Trichlorophenyl)-2-propanone] lists log S -3.59 (log10 mol/L).
The entry for CCOP(=S)(OCC)Oc1ccc([N+](=O)[O-])cc1 [Parathion] lists log S -4.36 (log10 mol/L).
The entry for CCCC(=O)c1c(C)cc(C)c(C2CC(=O)C(C(CC)=NOCC)=C(O)C2)c1C (stereo unspecified) [Butroxydim] lists log S -4.759 (log10 mol/L).
The entry for CCC1(c2ccccc2)C(=O)NC(=O)N(C)C1=O (stereo unspecified) [Mephobarbital] lists log S -2.54 (log10 mol/L).
The entry for CCSCCOP(=S)(OC)OC [Demeton-O-methyl] lists log S -2.839 (log10 mol/L).
The entry for CC1(C)CCC(=Cc2ccc(Cl)cc2)C1(O)Cn1cncn1 (stereo unspecified) [Triticonazole] lists log S -4.595 (log10 mol/L).
The entry for COc1cnc(OC)n2nc(NS(=O)(=O)c3c(OCC(F)F)cccc3C(F)(F)F)nc12 [Penoxsulam] lists log S -3.07 (log10 mol/L).
The entry for c1cc(OCC2CO2)cc(OCC2CO2)c1 (stereo unspecified) [Diglycidyl resorcinol ether] lists log S -3.126 (log10 mol/L).
The entry for O=C1NC(=S)NC(=O)C1C(=O)Nc1ccccc1 [Merbarone] lists log S -1.642 (log10 mol/L).
The entry for CC[C@]12CC[C@H]3[C@@H](CCC4=CC(=O)CC[C@@H]43)[C@@H]1CCC2=O [(+)-13-Ethylgon-4-ene-3,17-dione] lists log S -3.833 (log10 mol/L).
The entry for O=C(Cc1ccccc1)N/C(=N\OCC1CC1)c1c(C(F)(F)F)ccc(F)c1F [Cyflufenamid] lists log S -5.9 (log10 mol/L).
The entry for O=C(O)C(Cl)(Cl)Cl [Trichloroacetic acid] lists log S -0.57 (log10 mol/L).
The entry for O=C1CN=C(c2ccccn2)c2cc(Br)ccc2N1 [Bromazepam] lists log S -3.48 (log10 mol/L).
The entry for C=CCCl [Allyl chloride] lists log S -1.36 (log10 mol/L).
The entry for CC(C)(C)c1ccc(OP2OCC3(CO2)COP(Oc2ccc(C(C)(C)C)cc2C(C)(C)C)OC3)c(C(C)(C)C)c1 (stereo unspecified) [Bis(2,4-di-tert-butylphenyl) pentaerythritol diphosphite] lists log S -6.813 (log10 mol/L).
The entry for COc1cc(C)c(C(=O)c2c(OC)ccc(Br)c2C)c(OC)c1OC [Metrafenone] lists log S -5.921 (log10 mol/L).
The entry for Brc1cc(Br)c(Oc2cc(Br)c(Br)cc2Br)c(Br)c1 [2,2',4,4',5,6'-Hexabromodiphenyl ether] lists log S -8.869 (log10 mol/L).
The entry for CCOC(=O)C1(c2ccccc2)CCN(CCc2ccc(N)cc2)CC1 [Anileridine] lists log S -4.454 (log10 mol/L).
The entry for CC(=O)C=Cc1ccccc1 [Methyl styryl ketone] lists log S -2.043 (log10 mol/L).
The entry for C=C(C)[C@]1(O)C2OC(=O)C1[C@]1(O)[C@H]3O[C@H]3[C@]3(CO3)[C@]1(C)C2O (some centres not stated) [Hyenanchin] lists log S -1.42 (log10 mol/L).
The entry for Brc1ccccc1-c1ccccc1Br [2,2'-Dibromobiphenyl] lists log S -6.101 (log10 mol/L).
The entry for O=[N+]([O-])O[C@@H]1CO[C@H]2[C@@H]1OC[C@@H]2O [Isosorbide 5-mononitrate] lists log S -0.525 (log10 mol/L).
The entry for O=C(O)C(F)(F)C(F)(F)C(F)(F)C(F)(F)C(F)(F)C(F)(F)C(F)(F)C(F)(F)F [Perfluorononanoic acid] lists log S -2.553 (log10 mol/L).
The entry for FC(F)(F)c1ccc(OCCCOc2c(Cl)cc(OCC=C(Cl)Cl)cc2Cl)nc1 [Pyridalyl] lists log S -3.515 (log10 mol/L).
The entry for O=C1C[C@@H]2OCC=C3C[N+]4([O-])CC[C@]56c7ccccc7N1[C@H]5[C@H]2[C@H]3C[C@@H]64 (stereo partly drawn) lists log S -1.275 (log10 mol/L).
The entry for Clc1ccc2c(c1)Oc1ccc(Cl)cc1O2 [2,7-Dichlorodibenzo-p-dioxin] lists log S -7.83 (log10 mol/L).
The entry for Clc1ccc(C(Cl)(Cl)Cl)cn1 [2-Chloro-5-trichloromethylpyridine] lists log S -3.368 (log10 mol/L).
The entry for COc1cc(OC)nc(Oc2cccc(Oc3nc(OC)cc(OC)n3)c2C(=O)[O-])n1.[Na+] [Bispyribac-sodium] lists log S -0.848 (log10 mol/L).
The entry for Cc1cc(OC(=O)N(C)C)nn1C(=O)N(C)C [Dimetilan] lists log S -0.062 (log10 mol/L).
The entry for CC(C)N(CCC(C(N)=O)(c1ccccc1)c1ccccn1)C(C)C (stereo unspecified) [Disopyramide] lists log S -1.701 (log10 mol/L).
The entry for CC(C)N(C)S(=O)(=O)N=C(O)c1cc(-n2c(=O)cc(C(F)(F)F)n(C)c2=O)c(F)cc1Cl [Saflufenacil] lists log S -2.38 (log10 mol/L).
The entry for N#C[C@H](O[C@@H]1O[C@H](CO[C@@H]2O[C@H](CO)[C@@H](O)[C@H](O)[C@H]2O)[C@@H](O)[C@H](O)[C@H]1O)c1ccccc1 [Amygdalin] lists log S -0.77 (log10 mol/L).
The entry for CCCCCCCC1(CC)C(=O)NC(=O)NC1=O [5-Ethyl-5-n-heptylbarbituric acid] lists log S -3.219 (log10 mol/L).
The entry for CC(c1ccc(O)cc1)(c1ccc(O)cc1)c1ccc(O)cc1 [4,4',4''-Ethane-1,1,1-triyltriphenol] lists log S -4.087 (log10 mol/L).
The entry for Cc1cc(C(C)(C)c2cc(C)c(O)c(C)c2)cc(C)c1O [4,4'-Propane-2,2-diylbis(2,6-dimethylphenol)] lists log S -4.953 (log10 mol/L).
The entry for CC1=C(C(=O)O)N2C(=O)[C@@H](N)[C@H]2SC1 [7-Aminodeacetoxycephalosporanic acid] lists log S -3.045 (log10 mol/L).
The entry for COP(=O)(OC)SCn1c(=O)oc2cc(Cl)cnc21 [Azamethiphos] lists log S -2.47 (log10 mol/L).
The entry for CN(C)CCCc1ccccc1 [1-Dimethylamino-3-phenylpropane] lists log S -1.657 (log10 mol/L).

Excerpt, the final 5 entries:

The entry for CC(c1ccc(O)cc1)(c1ccc(O)cc1)c1ccc(O)cc1 [4,4',4''-Ethane-1,1,1-triyltriphenol] lists log S -4.087 (log10 mol/L).
The entry for Cc1cc(C(C)(C)c2cc(C)c(O)c(C)c2)cc(C)c1O [4,4'-Propane-2,2-diylbis(2,6-dimethylphenol)] lists log S -4.953 (log10 mol/L).
The entry for CC1=C(C(=O)O)N2C(=O)[C@@H](N)[C@H]2SC1 [7-Aminodeacetoxycephalosporanic acid] lists log S -3.045 (log10 mol/L).
The entry for COP(=O)(OC)SCn1c(=O)oc2cc(Cl)cnc21 [Azamethiphos] lists log S -2.47 (log10 mol/L).
The entry for CN(C)CCCc1ccccc1 [1-Dimethylamino-3-phenylpropane] lists log S -1.657 (log10 mol/L).

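The numbers are reported measurements, compiled and curated for the OPERA QSAR suite. A listed value is a point estimate from one report or more. How each value was measured is not recorded, so precision varies. A value may pool stereoisomers or salt forms, and the file does not say which form was measured. Some upstream entries may be estimates or bounds without being marked so.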